{"source": "the OPERA property sets (Mansouri et al. 2018)"}
{"settings": "experimental values compiled from the literature", "units": {"solubility": "mM"}}
{"smiles": "O=[N+]([O-])N1CN([N+](=O)[O-])CN([N+](=O)[O-])C1", "solubility": 0.269}
{"smiles": "CN(c1c([N+](=O)[O-])cc([N+](=O)[O-])cc1[N+](=O)[O-])[N+](=O)[O-]", "solubility": 0.258}
{"smiles": "O=C(O)c1c([N+](=O)[O-])cc([N+](=O)[O-])cc1[N+](=O)[O-]", "solubility": 79.9}
{"smiles": "O=[N+]([O-])c1cc([N+](=O)[O-])c(O)c([N+](=O)[O-])c1", "solubility": 55.4}
{"smiles": "CC(O)C(C)(C)C", "note": "(stereo not given)", "solubility": 238}
